Measured values: PubChem BioAssay AID624466 (The Scripps Research Institute Molecular Screening Center, 2012)
Only a part is listed here, and it is no random draw. The source made the active and inactive calls.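 How the source made its calls: active means inhibition above a per-plate cutoff, the mean inhibition of test compounds on that plate plus 3 SD (cut at about 49% in these data); inactive means the rest.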

Protein sequences, listed by entry. Tags and fused reporters are not part of them.
UniProt Q96RJ0, whole entry: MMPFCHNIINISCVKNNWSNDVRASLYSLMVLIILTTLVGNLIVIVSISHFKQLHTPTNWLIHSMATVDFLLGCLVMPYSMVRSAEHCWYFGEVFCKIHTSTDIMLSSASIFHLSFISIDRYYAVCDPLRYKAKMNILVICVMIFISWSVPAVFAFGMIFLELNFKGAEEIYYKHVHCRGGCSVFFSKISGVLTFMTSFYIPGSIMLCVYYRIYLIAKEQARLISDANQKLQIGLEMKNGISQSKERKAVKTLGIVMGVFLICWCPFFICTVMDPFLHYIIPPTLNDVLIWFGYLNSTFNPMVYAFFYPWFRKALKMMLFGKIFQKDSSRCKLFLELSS

target: Trace amine-associated receptor 1 (Homo sapiens) (UniProt Q96RJ0); test: human TAAR1 antagonists, primary screen, Fluo-8 calcium fluorescence, CHO RD-HGA16 cells (AID 624466); details: CHO RD-HGA16 TAAR1, Fluo-8 calcium fluorescence, antagonist; at 3 µM; hits give high values;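 further: 0% = DMSO plus EC80 beta-PEA response and 100% = DMSO alone without agonist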

Compound | inhibition
CCN1CCC(Nc2ccc(Cl)cc2)CC1 | inactive: -13.5%
N#CC1(Nc2ccccc2)CCN(CCc2ccccc2)CC1 | inactive: -5.38%
O=c1[nH]c2ccccc2n1C1CCN(C(c2ccccc2OC(F)(F)F)c2nnnn2C2CCCC2)CC1 (stereo unspecified) | inactive: 40.5%
CSc1ccc(C(=O)NCC2(N3CCOCC3)CCCCC2)cc1 | inactive: -32.1%
O=C(NCC1(N2CCCCC2)CCCCC1)c1cccc([N+](=O)[O-])c1 | inactive: -10.3%
CC(C)(C)n1nnnc1C(c1ccccc1OC(F)(F)F)N1CCC(n2c(=O)[nH]c3ccccc32)CC1 (stereo unspecified) | inactive: 35.6%
O=C(NCC1(N2CCCCC2)CCCCC1)c1ccc(OC(F)F)cc1 | inactive: -1.59%
O=C(NCC1(N2CCOCC2)CCCCC1)c1cc(=O)[nH]c2ccccc12 | inactive: -3.86%
COc1cc(C(=O)NCC2(N3CCCCC3)CCCCC2)ccc1OC(F)F | inactive: -11.9%
CCCCn1nnnc1C(c1cccc2ccccc12)N1CCC(n2c(=O)[nH]c3ccccc32)CC1 (stereo unspecified) | inactive: 37.6%
COc1ccc(NC2CCN(C(=O)OC(C)(C)C)CC2)cc1 | inactive: -29.1%
CC(C)c1ccc(C(=O)NCC2(N3CCOCC3)CCCCC2)cc1 | inactive: -33.4%
CN1CCN(CCOC(=O)C(O)(c2ccccc2)c2ccccc2)CC1 | inactive: -1.68%
O=C(NCC1(N2CCCCC2)CCCCC1)c1cccc(C(F)(F)F)c1 | inactive: 4.38%
COc1cc(OC)c(C(=O)NCC2(N(C)C)CCCCC2)cc1OC | inactive: -5.97%
CCC(c1nnnn1C(C)(C)C)N1CCC(n2c(=O)[nH]c3ccccc32)CC1 (stereo unspecified) | inactive: -1.76%
O=C(NCC1(N2CCOCC2)CCCCC1)c1cc(F)c(F)cc1Cl | inactive: -4.91%
CCCCn1nnnc1C(c1ccnc2ccccc12)N1CCC(n2c(=O)[nH]c3ccccc32)CC1 (stereo unspecified) | inactive: 46.5%
CC(C)c1ccc(NC2CCN(C(=O)OC(C)(C)C)CC2)cc1 | inactive: -9.95%
COc1ccc(CN(CCCl)CCCl)cc1Cl | inactive: 6.98%
CN(C)c1cccc(C(=O)NCC2(N3CCCCC3)CCCCC2)c1 | inactive: -22.1%

Compound | inhibition
COc1ccc(C(c2nnnn2C2CCCC2)N2CCC(n3c(=O)[nH]c4ccccc43)CC2)cc1 (stereo unspecified) | inactive: -13.6%
Cc1ccc(C(=O)NCC2(N(C)C)CCCCC2)o1 | inactive: -18.3%
CCCOc1ccc(C(=O)NCC2(N(C)C)CCCCC2)cc1OC | inactive: 0.92%
O=C(NCC1(N2CCCCC2)CCCCC1)c1cncc(Br)c1 | inactive: 6.56%
CN1CCC(Nc2cccc(F)c2)CC1 | inactive: -7.36%
CSc1ccccc1C(=O)NCC1(N2CCCCC2)CCCCC1 | inactive: 3.79%
Cc1cccc(NC2(C#N)CCN(Cc3ccccc3)CC2)c1 | inactive: -19.2%
COc1ccc(C(=O)NCC2(N3CCCCC3)CCCCC2)cc1 | inactive: 12.9%
CCC(c1nnnn1C1CCCC1)N1CCC(n2c(=O)[nH]c3ccccc32)CC1 (stereo unspecified) | inactive: 13%
COc1ccc(C(=O)NCC2(N3CCCCC3)CCCCC2)c(OC)c1OC | inactive: 7.78%
CC(C)(C)OC(=O)N1CCC(N(C(=O)c2ccccc2)c2ccc(F)cc2)CC1 | inactive: -3.15%
O=C(NCC1(N2CCCCC2)CCCCC1)c1ccc(=O)[nH]c1 | inactive: -12%
CCCCn1nnnc1C(c1cccs1)N1CCC(n2c(=O)[nH]c3ccccc32)CC1 (stereo unspecified) | active: 59.9%
CCCCn1nnnc1C(CC)N1CCC(n2c(=O)[nH]c3ccccc32)CC1 (stereo unspecified) | inactive: 30.8%
O=C(NCC1(N2CCCCC2)CCCCC1)c1cccs1 | inactive: -5.5%
O=c1[nH]c2ccccc2n1C1CCN(C(c2cc3ccccc3o2)c2nnnn2C2CCCCC2)CC1 (stereo unspecified) | inactive: 39.5%
O=C(OC1CN2CCC1CC2)C1c2ccccc2Oc2ccccc21 (stereo unspecified) | inactive: -6.1%
N#CC1(Nc2ccccc2)CCN(Cc2ccccc2)CC1 | inactive: -6.65%
O=C(NCC1(N2CCCCC2)CCCCC1)c1ccc(Cl)s1 | inactive: -10.8%
COc1ccc(Cl)cc1C(=O)NCC1(N2CCOCC2)CCCCC1 | inactive: -9.02%
CCOC(=O)N1CCC(Nc2ccc(OC)cc2)CC1 | inactive: -12.7%

Compound | inhibition
CCCCn1nnnc1C(c1ccc(OC)cc1)N1CCC(n2c(=O)[nH]c3ccccc32)CC1 (stereo unspecified) | inactive: 11.3%
O=c1[nH]c2ccccc2n1C1CCN(C(c2ccccc2OC(F)(F)F)c2nnnn2C2CCCCC2)CC1 (stereo unspecified) | inactive: 17.9%
O=C(NCC1(N2CCCCC2)CCCCC1)c1ccc(Cl)nc1 | inactive: -30.6%
Cc1cc(C)cc(N(C(=O)c2ccccc2)C2CCN(C(=O)OC(C)(C)C)CC2)c1 | inactive: -24.8%
O=C(NCC1(N2CCOCC2)CCCCC1)c1cc2ccccc2o1 | inactive: 14.6%
O=C(NCC1(N2CCCCC2)CCCCC1)c1ccc(F)cc1 | inactive: -3.25%
CCCCOc1ccc(C(=O)NCC2(N3CCOCC3)CCCCC2)cc1 | inactive: -3.48%
O=P1(N(CCCl)CCCl)SCCCS1 | inactive: -19.1%
CCCCn1nnnc1C(c1cc2ccccc2o1)N1CCC(n2c(=O)[nH]c3ccccc32)CC1 (stereo unspecified) | active: 53.7%
CCOC(=O)N1CCC(Nc2ccc(F)cc2)CC1 | inactive: -12.8%
COc1ccc(NC2CCN(CCc3ccccc3)CC2)c(OC)c1 | inactive: 7.94%
CC(C)(C)n1nnnc1C(c1ccccc1)N1CCC(n2c(=O)[nH]c3ccccc32)CC1 (stereo unspecified) | inactive: 17%
O=C1CCN(Cc2ccccc2)CC1 | inactive: -3.53%
CCOc1ccc(C)cc1CN(CCCl)CCCl | inactive: 10.6%
COc1cc(C(=O)NCC2(N(C)C)CCCCC2)ccc1OC(F)F | inactive: -12.4%
CCOC(=O)N1CCC(Nc2cccc(C)c2)CC1 | inactive: -26.9%
O=c1[nH]c2ccccc2n1C1CCN(C(c2cccc3ccccc23)c2nnnn2C2CCCC2)CC1 (stereo unspecified) | inactive: 18.4%
O=c1[nH]c2ccccc2n1C1CCN(C(c2ccccc2)c2nnnn2C2CCCCC2)CC1 (stereo unspecified) | active: 63.4%
Cc1ccc(C(=O)NCC2(N3CCCCC3)CCCCC2)o1 | inactive: -19.3%
